The subject of this series is Nucleic Acid. Kind of series: Ratio of drug level in brain to blood in Sprague-Dawley rats at 1 mg/kg, sc after 1 hr by LC/MS/MS analysis. The conditions noted are these: rat, strain Sprague-Dawley.

Results on 1 compound are retold here after ChEMBL document CHEMBL2331215, “Discovery of novel N-substituted oxindoles as selective m1 and m4 muscarinic acetylcholine receptors partial agonists” (ACS Med Chem Lett, 2013).

Regarding `CCOC(=O)N1[C@@H]2CC[C@H]1C[C@H](CN1CC[C@H](N3C(=O)Cc4ccccc43)C1)C2`, the Ratio was determined as 2.
